The text below walks through data of patent publication US20180344702A1, “METHODS FOR TREATING PATIENTS WITH HEMATOLOGIC MALIGNANCIES” (Aptose Biosciences, Inc., priority 2017, published 2018).

Sequences of proteins named here, by UniProt entry; tags and fusion partners are left off. A change or cut given only in a name is not applied to a line headed by its entry.
UniProt Q06187: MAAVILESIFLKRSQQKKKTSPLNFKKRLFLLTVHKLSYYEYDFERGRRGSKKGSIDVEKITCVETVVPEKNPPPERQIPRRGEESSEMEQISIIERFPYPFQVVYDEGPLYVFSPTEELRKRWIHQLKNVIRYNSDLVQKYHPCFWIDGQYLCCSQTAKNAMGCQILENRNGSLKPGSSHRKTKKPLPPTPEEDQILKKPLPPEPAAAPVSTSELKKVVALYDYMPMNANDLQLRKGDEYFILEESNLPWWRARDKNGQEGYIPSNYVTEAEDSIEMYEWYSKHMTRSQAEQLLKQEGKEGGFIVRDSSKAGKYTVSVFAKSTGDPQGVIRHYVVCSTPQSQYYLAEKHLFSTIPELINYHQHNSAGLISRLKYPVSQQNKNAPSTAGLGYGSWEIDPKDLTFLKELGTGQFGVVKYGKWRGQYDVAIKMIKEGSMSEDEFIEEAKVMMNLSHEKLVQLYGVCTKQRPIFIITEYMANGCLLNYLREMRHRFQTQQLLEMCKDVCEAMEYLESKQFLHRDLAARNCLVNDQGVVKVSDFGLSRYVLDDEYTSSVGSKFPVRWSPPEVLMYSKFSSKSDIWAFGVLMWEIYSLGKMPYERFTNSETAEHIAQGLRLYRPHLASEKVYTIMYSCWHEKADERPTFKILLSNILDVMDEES

For this assay, the target named is BTK WT (Homo sapiens, UniProt Q06187). Nature of the assay: Comparative potency against BTK (Table 8). Type of assay: biochemical. Conditions: Table 8, wild-type BTK.

As usually defined, the IC50 is the concentration that inhibits the measured activity by half. Higher therefore signals lower potency. Regarding `C=CC(=O)Nc1cccc(Nc2nc(Nc3ccc(OCCOC)cc3)ncc2F)c1` [CC-292], the IC50 is less than 0.5 nM.
